Data from article doi:10.64898/2025.12.24.696448v1.

By UniProt entry, the sequences of proteins in these tests, tags left out.
UniProt O75874, whole entry: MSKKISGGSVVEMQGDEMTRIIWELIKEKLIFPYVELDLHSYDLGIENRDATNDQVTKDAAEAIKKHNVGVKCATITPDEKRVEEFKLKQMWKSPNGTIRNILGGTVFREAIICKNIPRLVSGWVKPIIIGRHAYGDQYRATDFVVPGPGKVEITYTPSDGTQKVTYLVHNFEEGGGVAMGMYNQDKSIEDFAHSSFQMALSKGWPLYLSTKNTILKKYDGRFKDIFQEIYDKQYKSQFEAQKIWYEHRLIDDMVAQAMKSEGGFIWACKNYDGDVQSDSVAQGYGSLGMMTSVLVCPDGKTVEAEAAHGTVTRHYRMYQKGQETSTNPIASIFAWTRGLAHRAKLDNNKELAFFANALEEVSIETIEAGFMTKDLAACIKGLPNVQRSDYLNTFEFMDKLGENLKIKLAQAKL

Target: IDH1 (Homo sapiens, UniProt O75874)
Assay: SPR
Assay type: binding
Conditions: 25 °C, pH 7.4, 2% DMSO; allosteric (cryptic Pocket 5)

Question: How did the Kd turn out when `O=C1C2CCC(C(O)C2)N1Cc1ccccc1` (stereo not shown) was run?
Answer: 63.4 µM
